Ab-95 light chain CDR variants: yeast mating affinities

The measurements come from Engelhart et al. 2022 (doi:10.1038/s41597-022-01779-4) through the FLAb antibody collection.

Antigen: PDVDLGDISGINAS, a 14-residue peptide of the SARS-CoV-2 spike HR2 region.

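Phage display of a naive human antibody library on the peptide gave the parent. In library AAYL52, one, two or three CDR residues were substituted; doubles and triples were drawn at random. The assay is AlphaSeq: two haploid yeast populations carry antibody and antigen on their surface. Binding brings cells together so that they mate, and sequencing counts the barcode pairs among the diploids. Scores were corrected for input abundance and mapped to Kd with protein pairs of known affinity run in the same pool. There are three technical replicates.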

Parent scFv Ab-95: VH joined to VL by a 15-residue (Gly4Ser)3 linker. Changes lie in the light chain CDRs alone.
VH: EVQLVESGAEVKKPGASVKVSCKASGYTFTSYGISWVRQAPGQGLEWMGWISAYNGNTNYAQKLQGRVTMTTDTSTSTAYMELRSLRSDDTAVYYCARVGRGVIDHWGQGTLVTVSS
VL: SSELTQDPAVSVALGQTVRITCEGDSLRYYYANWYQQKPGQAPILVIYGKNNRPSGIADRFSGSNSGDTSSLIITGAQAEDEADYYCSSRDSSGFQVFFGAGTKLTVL

Each variant is given by its three light chain CDRs, as the data file delimits them; those of the parent are EGDSLRYYYAN, GKNNRPS, SSRDSSGFQVF.
Scale: log10 of Kd in nM, estimated from mating counts; low values are strong binders.
"ND" means that the variant was in the library but no mating with the target was seen in that replicate; the authors take this as a sign of poor binding, and no number exists.
Empty control strains, which show no peptide, gave a signal in 28% of pairings with library AAYL52; the median was 3.91 and 95% of these signals were weaker than 2.90. No background was subtracted. The control count says in how many pairings with the empty strains this scFv gave a signal, with their mean in brackets.

CDR-L1,CDR-L2,CDR-L3,log10 Kd (nM) by replicate,empty controls
EGDSVRYYYAN,RKNNRPS,SSRDSSGRQVF,5.59 5.68 ND,2/9 (3.86)
EGQSLRYYQAN,GKNNRPS,SSRDSSGFQLF,1.73 1.65 1.36,3/9 (4.16)
EGHSLRYYYAN,GKNNVKS,SSRDSSGFQVF,3.07 4.23 3.09,5/9 (4.14)
EGDSLRYYYAN,GKNNRVS,SSCDSSGCQVF,3.03 3.56 2.79,2/9 (4.43)
EGDSQRYYYAN,GKNNRPS,SSYDYSGFQVF,4.91 ND 3.58,1/9 (3.40)
EGDSLRYYEAR,GKNHRPS,SSRDSSGFQVF,3.23 2.93 3.24,3/9 (4.65)
EGDMLRYYYAN,GKNNPPS,SSRDSSGFQAF,ND 4.07 2.94,0/9
EGRSLRYYVAN,GKNNRPS,SSRDQSGFQVF,2.91 2.59 2.95,4/9 (3.86)
EGDSVRYYFAN,GKNNRPS,SSRDSSGFQVP,3.47 3.04 3.08,8/9 (4.12)
EGDRLRYYYAN,GKFLRPS,SSRDSSGFQVF,4.04 3.88 ND,5/9 (3.83)
EGDSLRDYYAN,DKNNRPA,SSRDSSGFQVF,3.01 2.65 2.51,4/9 (3.84)
EGDSLRYYYLN,GDNNRPS,SSRDSSGFQQF,3.29 5.58 3.06,3/9 (3.93)
EGDSLRQYYAN,GENNRPL,SSRDSSGFQVF,2.14 1.85 1.74,1/9 (2.86)
EQDSLRYYYAP,GKNNRPS,YSRDSSGFQVF,ND ND ND,4/9 (3.91)
EGDALRYKYAN,GKNNRPS,SSRESSGFQVF,3.25 4.04 2.36,0/9
EGDLLRYYYAN,YKNNRPS,SSHDSSGFQVF,ND 4.29 ND,5/9 (4.27)
EGDSLRYYNAN,GKKNRPS,SSRDSSGWQVF,2.12 2.90 2.32,1/9 (2.73)
EGDSLHFYYAN,GKNNRPS,SSQDSSGFQVF,ND 3.24 3.76,3/9 (4.21)
EGDSLRYYYAN,GHNNRPS,SLRDSSSFQVF,3.72 3.39 4.06,3/9 (4.06)
EGDSLRYYYAN,GKNNRPP,FSRDSSLFQVF,2.85 2.98 3.55,5/9 (3.95)
EGDSLPYYYAN,GINNRPS,SSRDSSGTQVF,2.54 2.23 2.12,1/9 (3.18)
FGDSLRYYYAN,GKNNRPS,SSRDDSGFQHF,4.97 3.60 2.64,1/9 (4.13)
EGHSLRYYYFN,GKNNRPS,RSRDSSGFQVF,4.47 ND 2.71,6/9 (3.67)
EGDSLRYYYAW,GKNARPI,SSRDSSGFQVF,2.64 3.14 2.87,5/9 (4.15)
EVDSLRYYYNN,GKNNRPS,SSQDSSGFQVF,ND ND ND,1/9 (3.70)
EGDSLRYYYAN,FKNNRPS,SSRDSSQWQVF,ND ND ND,0/9
EGDSLRYYYAN,GKNNRPS,SSRDSVGNQTF,3.77 ND ND,2/9 (4.10)
EGDSLRYYYAN,GKNNRPS,SSRWHCGFQVF,3.54 3.48 ND,2/9 (3.55)
RGDSLRYYYTN,GKNNRPS,SSRDSSDFQVF,2.39 2.77 3.46,3/9 (3.99)
EGDSLRYYYAN,GKNNNRS,SSRDSSGFPVF,ND ND ND,0/9
EGDSLRYYYHN,GKNNPPS,PSRDSSGFQVF,ND 4.61 ND,7/9 (3.97)
EVDSLRYYYAN,GKCNRPS,SSRDSSGNQVF,4.31 ND ND,1/9 (4.87)
KGDSLRYYYAN,GKNNLPS,SSRDSSGFQVF,2.46 2.00 1.34,2/9 (4.24)
EGDCLRYYYAV,GKNNRPS,SSRDSSGWQVF,ND ND 3.58,4/9 (3.79)
EGDSLRYYYNN,GKNNRPS,QSRDSSGFKVF,4.43 4.31 3.57,2/9 (4.42)
EGDSLRYYYAN,QKNNRPS,SSRVSSGFQPF,4.21 ND ND,1/9 (4.14)
ERDSLRYYYAK,GKNNRPW,SSRDSSGFQVF,ND ND ND,1/9 (3.16)
EGDSLRCYYAN,EKGNRPS,SSRDSSGFQVF,3.83 ND ND,5/9 (4.17)
EGDSLRYYYAN,KKNNCPS,SSMDSSGFQVF,ND 3.81 3.76,1/9 (3.60)
EFDSLRYYYAN,GKNNRPD,SSRDSSGFQVF,2.18 2.12 1.44,3/9 (4.54)
EGDSLRYYSAN,GNNNRPS,SSRISSGFQVF,1.76 1.52 1.09,5/9 (4.25)
EWDSLRYYYAL,GKNNRWS,SSRDSSGFQVF,3.32 3.80 3.31,3/9 (4.17)
EGDSLRYYYAN,GKNLRPS,SSADSSGGQVF,ND ND ND,2/9 (3.33)
EGDSLRYYYAN,GKNNRPS,SSRDSSVFAPF,1.93 1.69 1.73,4/9 (3.56)
EGYSLRYYYHN,GKNNRPY,SSRDSSGFQVF,ND 2.78 ND,1/9 (5.17)
EGDSLRYYYAN,GKNNRPH,SSCDSSGFQYF,3.76 4.49 ND,2/9 (3.41)
EGDSLRAYYAN,GKNRRPS,SSRDFSGFQVF,3.44 2.70 2.41,1/9 (4.21)
EGDSLLYYTAL,GKNNRPS,SSRDSSGFQVF,2.56 2.50 3.04,3/9 (3.84)
EGDSLRYYYAW,GKNNRPS,SSRDSSNFQKF,5.13 ND 3.57,0/9

Repeated from above, the 7 best binders with a signal in all replicates:

CDR-L1,CDR-L2,CDR-L3,log10 Kd (nM) by replicate,empty controls
EGDSLRYYSAN,GNNNRPS,SSRISSGFQVF,1.76 1.52 1.09,5/9 (4.25)
EGQSLRYYQAN,GKNNRPS,SSRDSSGFQLF,1.73 1.65 1.36,3/9 (4.16)
EGDSLRYYYAN,GKNNRPS,SSRDSSVFAPF,1.93 1.69 1.73,4/9 (3.56)
EGDSLRQYYAN,GENNRPL,SSRDSSGFQVF,2.14 1.85 1.74,1/9 (2.86)
EFDSLRYYYAN,GKNNRPD,SSRDSSGFQVF,2.18 2.12 1.44,3/9 (4.54)
KGDSLRYYYAN,GKNNLPS,SSRDSSGFQVF,2.46 2.00 1.34,2/9 (4.24)
EGDSLPYYYAN,GINNRPS,SSRDSSGTQVF,2.54 2.23 2.12,1/9 (3.18)

For reference, the parent read 2.31 as the reference entry and 2.25 as a member of this library.